Test: Food effect study (Example 11)
Settings: fed vs fasted state

increase of AUC by food: ~16%
increase of Cmax by food: ~39%
Compound: Cc1cccc(C)c1OCC(C)N.Cl (centres unmarked) [mexiletine hydrochloride]

From patent publication US20240173272A1 (LUPIN ATLANTIS HOLDINGS SA, priority 2021, published 2024)
